Measurements published in ChEMBL document CHEMBL2151039, “Discovery and development of α7 nicotinic acetylcholine receptor modulators” (J Med Chem, 2011).

By UniProt entry, the sequences of proteins in these tests, tags left out.
UniProt Q05941, whole entry: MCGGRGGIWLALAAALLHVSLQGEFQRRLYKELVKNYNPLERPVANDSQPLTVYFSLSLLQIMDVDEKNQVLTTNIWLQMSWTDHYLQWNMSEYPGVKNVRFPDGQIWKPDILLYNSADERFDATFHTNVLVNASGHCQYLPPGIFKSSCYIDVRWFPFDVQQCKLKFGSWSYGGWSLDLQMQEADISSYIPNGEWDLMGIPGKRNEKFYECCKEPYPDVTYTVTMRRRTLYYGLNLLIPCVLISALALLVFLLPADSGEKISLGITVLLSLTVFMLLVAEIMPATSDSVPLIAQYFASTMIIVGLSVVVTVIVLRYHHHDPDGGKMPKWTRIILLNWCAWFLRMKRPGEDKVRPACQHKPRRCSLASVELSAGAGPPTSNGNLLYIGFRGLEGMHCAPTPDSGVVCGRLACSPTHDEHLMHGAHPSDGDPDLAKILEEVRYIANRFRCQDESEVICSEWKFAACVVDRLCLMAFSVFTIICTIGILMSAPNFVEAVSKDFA

Target: Neuronal acetylcholine receptor subunit alpha-7 (Rattus norvegicus, UniProt Q05941)
Experiment: Binding affinity to rat alpha7 nAchR

With `O=C(Oc1ccc(Br)cc1)N1CCN2CCC1CC2` [SSR180711] the Ki was 0.022 µM.
